Earlier results, collected in patent US8476408B2, “Unacylated ghrelin and analogs as therapeutic agents for vascular remodeling in diabetic patients and treatment of cardiovascular disease” (Alize Pharma SAS, priority 2008, dated 2013).

The chains behind the UniProt entries cited, without tags or fusion partners.
UniProt Q92847, whole entry: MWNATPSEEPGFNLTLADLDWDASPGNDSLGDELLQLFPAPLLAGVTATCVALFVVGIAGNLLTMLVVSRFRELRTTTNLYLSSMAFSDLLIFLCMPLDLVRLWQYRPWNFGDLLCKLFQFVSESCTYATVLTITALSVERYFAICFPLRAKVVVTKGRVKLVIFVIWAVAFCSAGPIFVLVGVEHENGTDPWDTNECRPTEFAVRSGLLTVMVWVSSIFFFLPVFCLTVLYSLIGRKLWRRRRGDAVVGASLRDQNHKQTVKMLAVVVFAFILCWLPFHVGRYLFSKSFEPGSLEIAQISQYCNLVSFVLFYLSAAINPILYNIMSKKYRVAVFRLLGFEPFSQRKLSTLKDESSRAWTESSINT

Biological target: GHSR-1a (Homo sapiens, UniProt Q92847)
Conditions: cited from earlier work

des Gln-14 Ghrelin: isoform of ghrelin-28, a 27 amino acid peptide possessing serine 3 modification by n-octanoic acid (GSSFLSPEHQRVQRKESKKPPAKLQPR; n-octanoyl on Ser3; listed as Homo sapiens) [reference compound]
binding to GHSR-1a: binds to GHSR-1a with similar binding affinity
